Sampled rows, rich in hits. Any-hit rate of the full collection: about 0.94%.
UUG fidelity = modulators of yeast start codon fidelity, primary screen, whole organism, S. cerevisiae, single point, plate reader; S. cerevisiae UUG-firefly luciferase reporter, luminescence/redox ratio; activity score, % at 18.7 µM; 0.13% of 350,000 active; AID 602363, 2012;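 active = replicate mean at a twofold rise or more, about +100% in these data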;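 also: firefly luciferase made from a UUG start codon reports start codon fidelity; reporter light over untreated wells divided by growth signal over untreated wells; some hits fall short of that in this replicate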
PKA-R1A act = PKA-R1A complex activation. activation, % at 11.4 µM. PKA-R1A dissociation, Cy5-IP20 fluorescence polarization; scaled: DMSO 0%, 113 µM cGMP 100%. AID 504707. P00514+P68181. 0.083% of 340,000 active;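 active = percent activation above the mean of all tested compounds plus 3 SD, cut at about 19% in these data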;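 note: higher means more PKAc released from R1A so a rise in polarization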
ABCB6 inh 2 = blocks the human ABCB6 transporter; fluorescence ratio to DMSO, % at 10 µM; 0.19% of 360,000 active; K562-ABCB6 porphyrin accumulation, flow cytometry, 1 h; active compounds read low;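 active = fluorescence ratio to DMSO below 75%, the collection mean minus 3 SD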;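 note: signal is porphyrin accumulated inside mitochondria; lower ratio means ABCB6 inhibition with less porphyrin fluorescence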
Exocytosis inh = blocks lytic granule exocytosis; TALL-104 LAMP-1 surface exposure, flow cytometry; cells stimulated with thapsigargin and PMA; inhibition, % at 10 µM; 0.66% of 360,000 active; AID 651702;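 active = inhibition above about 55%, limit read from the data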
PKA-R2B act = PKA-R2B complex activation; P22694+P31323; PKA-R2B holoenzyme dissociation, Cy5-IP20 fluorescence polarization; R2B truncated from residue 108, S112A mutant; 0% DMSO only, 100% 113 µM cGMP; activation, % at 11.4 µM; 0.079% of 340,000 active; AID 504700;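 active = activation above a cutoff set at the mean over all compounds plus 3 SD, cut at about 18% in these data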;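 note: higher means more holoenzyme dissociation and a rise in polarization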
p-CIP stab down = p/CIP protein destabilization; 0.01% of 290,000 active; AID 1984; Q05BA5; F442A p/CIP-EGFP cells, EGFP fluorescence, 16 h; decrease of EGFP signal, % at 10 µM;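 active = EGFP signal decrease of at least 30% at 10 µM or well 3 SD below plate mean, unless failing retest; inactive = the rest, including hits failing retest or dose response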
ABCB6 inh CP1 = human ABCB6 transporter inhibition; 700 tested, under 10 active; shares compounds with ABCB6 inh 2; K562-ABCB6 porphyrin accumulation, flow cytometry, 1 h; active compounds read low; AID 602430; ratio response (% of DMSO), % at 10 µM;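 active = repeat-averaged ratio response below 75% of DMSO, the collection mean minus 3 SD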;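 note: median porphyrin fluorescence at 575 nm with 488 nm excitation from mitochondria; lower ratio means less porphyrin signal so ABCB6 inhibition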
Of the large screens only hits and unclear results are named; the others gave an inactive call (follow-up assays come after a bar, where they were run).

COc1ccc(S(=O)(=O)Nc2ccc3c(c2)C(=O)N([C@@H](C)CO)C[C@@H](C)[C@@H](CN(C)C(=O)Nc2ccccc2)OCCCC[C@H](C)O3)cc1	none (no result: PKA-R1A act, ABCB6 inh 2, Exocytosis inh, PKA-R2B act, p-CIP stab down)
CO[C@@H]1CN(C)C(=O)c2cc(NC(=O)c3ccccc3)ccc2OC[C@H](C)N(C(C)=O)C[C@@H]1C	none (no result: PKA-R1A act, ABCB6 inh 2, Exocytosis inh, PKA-R2B act, p-CIP stab down)
COc1ccc(N2C(=O)CSC2c2cccc(F)c2)cc1 (stereo not drawn)	ABCB6 inh 2 74 | ABCB6 inh CP1 inactive
Cc1ccc(S(=O)(=O)Nc2ccc3c(c2)C(=O)N([C@@H](C)CO)C[C@@H](C)[C@H](CN(C)C(=O)C2CCCCC2)OCCCC[C@@H](C)O3)cc1	none (no result: PKA-R1A act, ABCB6 inh 2, Exocytosis inh, PKA-R2B act, p-CIP stab down)
O=C(N[C@H]1CC[C@H](CCNS(=O)(=O)c2ccccc2)O[C@H]1CO)c1cccnc1	none (no result: PKA-R1A act, ABCB6 inh 2, Exocytosis inh, PKA-R2B act, p-CIP stab down)
CCCNC(=O)C[C@@H]1C[C@@H]2c3cc(NS(=O)(=O)c4ccc(OC)cc4)ccc3O[C@@H]2[C@H](CO)O1	none (no result: PKA-R1A act, ABCB6 inh 2, Exocytosis inh, PKA-R2B act, p-CIP stab down)
COc1cccc(N2CCN(C(=O)CC(C)(C)CC3=NS(=O)(=O)c4ccccc4N3)CC2)c1	ABCB6 inh 2 14 | ABCB6 inh CP1 inactive
O=S(=O)(NCC1CCCO1)c1cc(Cl)ccc1Cl (stereo not drawn)	none
O=S(=O)(NCC1CCCO1)c1cc(Cl)ccc1Br (stereo not drawn)	ABCB6 inh 2 24 | ABCB6 inh CP1 inactive
Cc1cccc(C)c1OCCOC(=O)c1cccc(S(=O)(=O)N2CCOCC2)c1	ABCB6 inh 2 71 (no result: p-CIP stab down) | ABCB6 inh CP1 inactive
Cc1cccc(NC(=O)c2oc3ccc(S(=O)(=O)N4CCOCC4)cc3c2C)c1C	ABCB6 inh 2 68 | ABCB6 inh CP1 inactive
CS(=O)(=O)Nc1ccc2c(c1)[C@H]1C[C@@H](CC(=O)NCc3ccccc3F)O[C@@H](CO)[C@H]1O2	none (no result: PKA-R1A act, ABCB6 inh 2, Exocytosis inh, PKA-R2B act, p-CIP stab down)
COCC#Cc1ccc2c(c1)O[C@@H](CN(C)Cc1ccc(F)cc1)[C@H](C)CN([C@@H](C)CO)S2(=O)=O	none (no result: PKA-R1A act, ABCB6 inh 2, Exocytosis inh, PKA-R2B act, p-CIP stab down)
CC(=O)/C(N=Nc1ccc2c(c1)OCO2)=C(\C)O	ABCB6 inh 2 74 (no result: UUG fidelity) | ABCB6 inh CP1 inactive
Cn1c(=O)c2ncn(CC(=O)NCCOc3ccc(C(C)(C)C)cc3)c2n(C)c1=O	none
Cn1c(=O)c2ncn(CC(=O)NCCOCc3ccccc3Cl)c2n(C)c1=O	ABCB6 inh 2 66 (no result: UUG fidelity) | ABCB6 inh CP1 inactive
CC1(C(=O)N2CCN(C(=O)c3ccco3)CC2)CCN1Cc1ccccc1OC(F)F (stereo not drawn)	ABCB6 inh 2 70 (no result: PKA-R1A act, PKA-R2B act, p-CIP stab down) | ABCB6 inh CP1 inactive
Cc1cnc(C(=O)OCc2ccc(C#N)cc2)cn1	none
Cc1cnc(C(=O)OCc2ccc(Br)cc2)cn1	ABCB6 inh 2 73 | ABCB6 inh CP1 inactive
COc1cccc(S(=O)(=O)N[C@H]2CC[C@@H](CC(=O)NCc3ccc(F)cc3)O[C@H]2CO)c1	none (no result: PKA-R1A act, ABCB6 inh 2, Exocytosis inh, PKA-R2B act, p-CIP stab down)
C[C@@H]1CN([C@H](C)CO)C(=O)c2cc(NC(=O)c3ccncc3)ccc2O[C@@H](C)CCCCO[C@H]1CN(C)Cc1ccc(C(F)(F)F)cc1	none (no result: PKA-R1A act, ABCB6 inh 2, Exocytosis inh, PKA-R2B act, p-CIP stab down)
CCCCCN(C(=O)CCC(=O)OCC(=O)Nc1cccc(CC)c1)c1c(N)n(CCCC)c(=O)[nH]c1=O	ABCB6 inh 2 74 (no result: UUG fidelity, p-CIP stab down) | ABCB6 inh CP1 inactive
CCCCCN(C(=O)CCC(=O)OCC(=O)Nc1ccc(C)cc1F)c1c(N)n(CCCC)c(=O)[nH]c1=O	none
CCCCCN(C(=O)CCC(=O)OCc1ccccc1F)c1c(N)n(CCCC)c(=O)[nH]c1=O	none (no result: p-CIP stab down)
CCCCCN(C(=O)CCC(=O)OCC(=O)NCCc1ccccc1)c1c(N)n(CCCC)c(=O)[nH]c1=O	none (no result: p-CIP stab down) | ABCB6 inh CP1 inactive
CCCCCN(C(=O)CCC(=O)OCc1cc(C)ccc1C)c1c(N)n(CCCC)c(=O)[nH]c1=O	none (no result: p-CIP stab down) | ABCB6 inh CP1 inactive
O=C(c1cccnc1)N1CC[C@@H]2[C@H](CO)Nc3ccc(-c4ccc(F)cc4)cc3[C@@H]21	none (no result: PKA-R1A act, ABCB6 inh 2, Exocytosis inh, PKA-R2B act, p-CIP stab down)
CCNC(=O)C[C@@H]1CC[C@H]2[C@@H](COc3ccc(NC(=O)c4cscn4)cc3C(=O)N2C)O1	none (no result: PKA-R1A act, ABCB6 inh 2, Exocytosis inh, PKA-R2B act, p-CIP stab down)
COc1ccc(N2CCN(C(=O)[C@H](Cc3c[nH]c4ccccc34)NC(C)=O)CC2)cc1	none (no result: UUG fidelity)
